Data reported in PubChem BioAssay AID1825 (The Scripps Research Institute Molecular Screening Center, 2009).
The list shows a part of the results, in another mix than the full data. Activity calls are given as the source filed them. No stated cut-off is given here; in the data, active means inhibition above about 22%; inactive means the rest.

Experiment: cytotoxicity in IEC-6 intestinal epithelial cells, primary screen, cytotoxicity control for KLF5 inhibitor project, cell-based, luminescence (AID 1825);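 further: 0% = plate median of test compound wells and 100% = cytotoxic reference compound wells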
Details: IEC-6 cytotoxicity, luminescence viability; at 5 µM; stronger effect = higher value

Structure (SMILES)	inhibition
CCOC(=O)c1ccc(NP(C)(=O)Oc2ccc(F)cc2)cc1 (centres undefined)	inactive: 3.3%
COc1ccc(OP(C)(=O)Nc2ccc(SC(F)(F)F)cc2)cc1 (centres undefined)	inactive: 0.8%
CCN(CC)CCCOC(=O)C(O)(c1ccccc1)C1CCCCC1 (centres undefined)	inactive: -0.7%
CP(=O)(Nc1ccccc1)Oc1ccc(F)cc1 (centres undefined)	inactive: -6.4%
CCCCCOc1ccc(NP(C)(=O)Oc2ccc(Cl)cc2Cl)cc1 (centres undefined)	inactive: -6.9%
O=[N+]([O-])c1cc([N+](=O)[O-])c(OC2CCCCC2O)c([N+](=O)[O-])c1 (centres undefined)	inactive: -13.2%
CP(=O)(Nc1ccccc1F)Oc1ccccc1 (centres undefined)	inactive: -9.8%
CC(C)c1ccc(OP(C)(=O)Nc2ccc(SC(F)(F)F)cc2)cc1 (centres undefined)	inactive: -2.4%
O=C(OC1CN2CCC1CC2)c1ccc([N+](=O)[O-])cc1 (centres undefined)	inactive: 3.2%
O=C(OCCN1CCN(CCOCc2ccccc2)CC1)C(O)(c1ccccc1)c1ccccc1	inactive: -3%
CP(=O)(Nc1ccc(SC(F)(F)F)cc1)Oc1ccc(F)cc1 (centres undefined)	inactive: 0.2%
CCOP(C)(=S)SCC(=O)NC(C)(CC)C(=O)O (centres undefined)	inactive: 0.7%
CP(=O)(Nc1ccc2c(c1)OCCO2)Oc1ccccc1 (centres undefined)	inactive: -3.6%
Cc1ccccc1NP(C)(=O)Nc1ccccc1C	inactive: -4.8%
COc1ccc(OP(C)(=O)Nc2cccc(Br)c2)cc1 (centres undefined)	inactive: -3.8%
CN(C)CCOC(=O)C(O)(c1ccccc1)C1CCCCC1 (centres undefined)	inactive: 3.1%
COc1ccc(NP(C)(=O)Oc2ccccc2OC)cc1 (centres undefined)	inactive: -0.5%
O=[N+]([O-])c1ccc(OP2(=O)COCCO2)cc1 (centres undefined)	inactive: 1.25%
Cc1cc(-c2cccc3ccccc23)c(C)cn1.O=[N+]([O-])c1cc([N+](=O)[O-])c(O)c([N+](=O)[O-])c1	inactive: 2.9%
O=[N+]([O-])c1cc([N+](=O)[O-])c(NCC2CCS(=O)(=O)C2)c([N+](=O)[O-])c1 (centres undefined)	inactive: -2.3%
CCOC(=O)c1ccc(NP(C)(=O)Oc2ccc(Cl)cc2)cc1 (centres undefined)	inactive: 2.2%

Structure (SMILES)	inhibition
CP(=O)(OC12CC3CC(CC(C3)C1)C2)OC12CC3CC(CC(C3)C1)C2	inactive: 4.4%
COc1ccc(OP(C)(=O)Nc2ccc(Br)cc2)cc1 (centres undefined)	inactive: -4.8%
CCN(CC)CC(O)COC(=O)C(O)(c1ccccc1)C1CCCCC1 (centres undefined)	inactive: -1%
O=C(OCCCN1CCCC1)C(O)(c1ccccc1)C1CCCCC1 (centres undefined)	inactive: 2.5%
COc1ccccc1OP(C)(=O)Nc1c(C)n(C)n(-c2ccccc2)c1=O (centres undefined)	inactive: 2.1%
CCc1ccc(OP(C)(=O)Nc2cccnc2)cc1 (centres undefined)	inactive: -0.4%
CP(=O)(Oc1ccccc1)N1CCOC1=O (centres undefined)	inactive: 2.3%
COc1ccccc1OP(C)(=O)Nc1ccccc1Br (centres undefined)	inactive: 3.8%
CC(C)(C)c1ccc(OP(C)(=O)O)cc1	inactive: -3%
CP(=O)(Nc1ccc(Cl)cc1)Oc1ccc(F)cc1 (centres undefined)	inactive: 3.1%
CN(C)C(=O)c1c([N+](=O)[O-])cc([N+](=O)[O-])cc1[N+](=O)[O-]	inactive: -6.3%
COc1ccccc1OP(C)(=O)Nc1ccc(Br)cc1 (centres undefined)	inactive: -0.8%
COc1ccc(OP(C)(=O)Nc2ccccn2)cc1 (centres undefined)	inactive: 0.4%
CN(C)CCOC(=O)C(O)(c1ccccc1)C1CCCC1 (centres undefined)	inactive: -0.7%
Cc1c(NP(C)(=O)Oc2ccc(C(C)C)cc2)c(=O)n(-c2ccccc2)n1C (centres undefined)	inactive: 1.7%
O=[N+]([O-])c1cc([N+](=O)[O-])c(Nc2ccccn2)c([N+](=O)[O-])c1	inactive: -13.2%
COc1ccccc1OP(C)(=O)Nc1ccc(C)cc1C (centres undefined)	inactive: 5.4%
CP(=O)(Nc1ccccn1)Oc1ccccc1 (centres undefined)	inactive: -11.4%
CCc1ccc(OP(C)(=O)O)cc1	inactive: -6.7%
Cc1cc(C)cc(OP(C)(=O)Nc2cccc(C(F)(F)F)c2)c1 (centres undefined)	inactive: 2.1%
COc1ccccc1OP(C)(=O)Nc1ccc(C)c(C)c1 (centres undefined)	inactive: -7.2%

Structure (SMILES)	inhibition
COc1ccc(OP(C)(=O)Nc2ccccc2Br)cc1 (centres undefined)	inactive: -8.8%
Cc1nc2ccc3ccccc3c2o1.O=[N+]([O-])c1cc([N+](=O)[O-])c(O)c([N+](=O)[O-])c1	inactive: 1.1%
CP(=O)(Nc1ccc(Cl)cc1Cl)Oc1ccccc1 (centres undefined)	inactive: -4.4%
CP(=O)(OCCOc1ccccc1)OCCOc1ccccc1	inactive: -1.7%
O=[N+]([O-])c1ccc2c(c1)C=Nc1ccccc1O2	inactive: 0%
Cc1cccc(C)c1OP(C)(N)=O (centres undefined)	inactive: 2%
CC(C)(C)c1ccc(OP(C)(=O)Nc2ccc(SC(F)(F)F)cc2)cc1 (centres undefined)	inactive: -3.5%
Cc1ccc(NP(C)(=O)Oc2ccccc2)c(C)c1 (centres undefined)	inactive: 0.3%
COc1ccccc1OP(C)(=O)Nc1ccc(C)cc1 (centres undefined)	inactive: 0.5%
CCOC(=O)c1ccc(NP(C)(=O)Oc2ccccc2)cc1 (centres undefined)	inactive: -1.1%
Cc1cc(C)cc(OP(C)(N)=O)c1 (centres undefined)	inactive: -2%
COc1ccc(OP(C)(=O)Nc2cccc(F)c2)cc1 (centres undefined)	inactive: -3%
COc1ccccc1OP(C)(=O)Nc1cc(Cl)ccc1C (centres undefined)	inactive: 13.8%
CCN(CC)CCCOC(=O)C(O)(c1ccccc1)c1ccccc1	inactive: -6.2%
CP(=O)(Oc1ccccc1)OC(c1ccccc1)C(F)(F)F (centres undefined)	inactive: 2.8%
Cc1cccc(C)c1OP(C)(=O)Nc1ccc(SC(F)(F)F)cc1 (centres undefined)	inactive: 4.1%
CP(=O)(Nc1ccc(SC(F)(F)F)cc1)Oc1ccc(Cl)cc1 (centres undefined)	inactive: -2.1%
Cc1cc(C)cc(OP(C)(=O)Nc2ccc(SC(F)(F)F)cc2)c1 (centres undefined)	inactive: 6.3%
CP(=O)(NC(=O)Nc1ccccc1)Oc1ccccc1 (centres undefined)	inactive: 1.4%
CCc1ccc(OP(C)(=O)N2CCN(c3ccc([N+](=O)[O-])cc3)CC2)cc1 (centres undefined)	inactive: 6.4%
CCOC(=O)c1ccc(NP(C)(=O)Oc2ccc(OC)cc2)cc1 (centres undefined)	inactive: 0.7%

Structure (SMILES)	inhibition
CCOP(C)(=S)SCC(=O)NC(C)C(=O)O (centres undefined)	inactive: 6.5%
CP(=O)(Nc1ccccn1)Oc1ccc(Cl)cc1 (centres undefined)	inactive: 2.4%
CP(=S)(Nn1cnnc1)Oc1ccccc1 (centres undefined)	inactive: 11.5%
CP(=O)(Nc1ccccc1Br)Oc1ccccc1 (centres undefined)	inactive: 0.5%
COc1ccccc1OP(C)(=O)Nc1ccccc1 (centres undefined)	inactive: -9.3%
CCOC(=O)C(CC)C1=NC(C)(C)Cc2ccccc21.O=[N+]([O-])c1cc([N+](=O)[O-])c(O)c([N+](=O)[O-])c1 (centres undefined)	inactive: 3.7%
O=[N+]([O-])c1cc([N+](=O)[O-])c(Nc2nnnn2CCO)c([N+](=O)[O-])c1	inactive: -3.1%
COc1ccccc1OP(C)(=O)Nc1c(C)cccc1C (centres undefined)	inactive: 3.9%
CN1CCCCC1COC(=O)C1(O)c2ccccc2CCc2ccccc21 (centres undefined)	inactive: -0.9%
CCCOc1ccc(NP(C)(=O)Oc2ccc(Cl)cc2)cc1 (centres undefined)	inactive: 3.5%
CP(=O)(Nc1ccc(SC(F)(F)F)cc1)Oc1ccccc1 (centres undefined)	inactive: -7.3%
O=[N+]([O-])c1cc([N+](=O)[O-])c(-n2nnc3ccccc32)c([N+](=O)[O-])c1	inactive: -1%
Cc1nc2ccc3ccccc3c2s1.O=[N+]([O-])c1cc([N+](=O)[O-])c(O)c([N+](=O)[O-])c1	inactive: -0.7%
COc1ccccc1OP(C)(=O)Nc1cccc(Br)c1 (centres undefined)	inactive: -0.1%
CCOC(=O)c1ccc(NP(C)(=O)Oc2cc(C)cc(C)c2)cc1 (centres undefined)	inactive: 8.7%
Cc1cc(C)cc(OP(C)(=O)Nc2ccc(C)cc2C)c1 (centres undefined)	inactive: 0.4%
Cc1ccc(C)c(NP(C)(=O)Oc2ccccc2)c1 (centres undefined)	inactive: -1.9%
Cc1cc(C)cc(OP(C)(=O)Nc2ccccn2)c1 (centres undefined)	inactive: -3.9%
CP(=O)(Nc1cccc(Br)c1)Oc1ccccc1 (centres undefined)	inactive: -1.8%
O=C(O)c1cccc(Nc2c([N+](=O)[O-])cc([N+](=O)[O-])cc2[N+](=O)[O-])c1	inactive: -12.4%
CC1=NCCc2c1[nH]c1ccccc21.O=[N+]([O-])c1cc([N+](=O)[O-])c(O)c([N+](=O)[O-])c1	inactive: 6.8%
